# Cyclic peptide permeability, from CycPeptMPDB

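Lipid, pH, incubation time, direction and concentration are not recorded in the data file. Other peptides of the study may be missing here. Entries at the database's floor value (log10 P of -10) are not listed.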

PAMPA measures passive passage through an artificial lipid membrane.
P is given in units of 10^-6 cm/s (from log10 values with two decimals); larger means faster passage.

SMILES | PAMPA (10^-6 cm/s)
CC(C)C[C@@H]1C(=O)N[C@@H](Cc2ccccc2)C(=O)N2CCC[C@@H]2C(=O)N[C@@H](Cc2ccccc2)CC(=O)N(C)[C@@H](CC(C)C)C(=O)N[C@H](CC(C)C)C(=O)N2CCC[C@H]2C(=O)N1C | 4.8
CCCN1CC(=O)N(C)[C@@H](CC(C)C)C(=O)N(C)[C@H](CC(C)C)C(=O)N2CCC[C@@H]2C(=O)N[C@@H](CC(C)C)C(=O)N[C@@H](Cc2ccccc2)C(=O)N2CCC[C@@H]2C1=O | 1.3
CC(C)C[C@@H]1C(=O)N[C@@H](Cc2ccccc2)C(=O)N2CCC[C@H]2C(=O)N[C@@H](Cc2ccccc2)CC(=O)N[C@H](CC(C)C)C(=O)N[C@H](CC(C)C)C(=O)N2CCC[C@H]2C(=O)N1C | 2.1
CC(C)C[C@@H]1NC(=O)[C@H]2CCCN2C(=O)CN(Cc2ccccc2)C(=O)[C@@H](CC(C)C)NC(=O)[C@H](C)NC(=O)[C@H](Cc2ccccc2)NC1=O | 0.46
CC(C)C[C@@H]1C(=O)N[C@H](CC(C)C)C(=O)N2CCC[C@H]2C(=O)N[C@H](CC(C)C)C(=O)N[C@@H](Cc2ccccc2)C(=O)N2CCC[C@H]2C(=O)N(C)[C@@H](C)C(=O)N1C | 2.8
CC(C)C[C@@H]1NC(=O)[C@@H]2CCCN2C(=O)CN(Cc2ccccc2)C(=O)[C@H](CC(C)C)NC(=O)[C@@H](C)N(C)C(=O)[C@H]2CCCN2C(=O)[C@H](Cc2ccccc2)NC1=O | 1.1
CC(C)C[C@@H]1NC(=O)[C@@H](CC(C)C)N(C)C(=O)C[C@H](Cc2ccccc2)NC(=O)[C@H]2CCCN2C(=O)[C@H](Cc2ccccc2)NC(=O)[C@H](CC(C)C)N(C)C(=O)[C@H]2CCCN2C1=O | 3.5
CC(C)C[C@@H]1C(=O)N(C)[C@H](CC(C)C)C(=O)N2CCC[C@@H]2C(=O)N(C)[C@H](CC(C)C)C(=O)N[C@@H](Cc2ccccc2)C(=O)N2CCC[C@@H]2C(=O)N(C)[C@H](C)C(=O)N1C | 1.9
CC(C)C[C@@H]1C(=O)N(C)[C@@H](CC(C)C)C(=O)N2CCC[C@@H]2C(=O)N(C)[C@H](CC(C)C)C(=O)N[C@@H](Cc2ccccc2)C(=O)N2CCC[C@H]2C(=O)N[C@@H](Cc2ccccc2)CC(=O)N1C | 3.3
CC(C)C[C@@H]1C(=O)N(C)[C@H](CC(C)C)C(=O)N2CCC[C@H]2C(=O)N(C)[C@@H](CC(C)C)C(=O)N[C@@H](Cc2ccccc2)C(=O)N2CCC[C@H]2C(=O)N[C@@H](C)C(=O)N1C | 2.3
CC(C)C[C@@H]1NC(=O)CN(Cc2ccccc2)C(=O)C[C@H](Cc2ccccc2)NC(=O)[C@@H]2CCCN2C(=O)[C@H](Cc2ccccc2)NC(=O)[C@@H](CC(C)C)N(C)C(=O)[C@H]2CCCN2C1=O | 2.3
CC(C)C[C@@H]1NC(=O)[C@@H]2CCCN2C(=O)[C@@H](CC(C)C)N(C)C(=O)[C@H](CC(C)C)NC(=O)C[C@H](Cc2ccccc2)NC(=O)[C@@H]2CCCN2C(=O)[C@H](Cc2ccccc2)NC1=O | 4.7
CC(C)C[C@@H]1NC(=O)[C@H]2CCCN2C(=O)[C@@H](CC(C)C)N(C)C(=O)[C@@H](CC(C)C)NC(=O)[C@@H](C)N(C)C(=O)[C@H]2CCCN2C(=O)[C@H](Cc2ccccc2)NC1=O | 0.035
CC(C)C[C@@H]1C(=O)N(Cc2ccccc2)CC(=O)N2CCC[C@H]2C(=O)N(C)[C@H](CC(C)C)C(=O)N[C@@H](Cc2ccccc2)C(=O)N[C@@H](Cc2ccccc2)CC(=O)N1C | 3.2
CC(C)C[C@H]1NC(=O)[C@H]2CCCN2C(=O)C[C@H](Cc2ccccc2)NC(=O)[C@H](CC(C)C)N(C)C(=O)[C@@H](C)N(C)C(=O)[C@@H]2CCCN2C(=O)[C@H](Cc2ccccc2)NC1=O | 0.55
CC(C)C[C@@H]1NC(=O)[C@@H](CC(C)C)NC(=O)C[C@H](Cc2ccccc2)NC(=O)[C@@H]2CCCN2C(=O)[C@H](Cc2ccccc2)NC(=O)[C@H](CC(C)C)N(C)C(=O)[C@@H]2CCCN2C1=O | 2.2
CC(C)C[C@@H]1C(=O)N[C@H](CC(C)C)C(=O)N2CCC[C@@H]2C(=O)N(Cc2ccccc2)CC(=O)N[C@@H](Cc2ccccc2)C(=O)N2CCC[C@H]2C(=O)N(C)[C@H](C)C(=O)N1C | 3.9
CC(C)C[C@H]1NC(=O)[C@H](C)N(C)C(=O)[C@H](Cc2ccccc2)NC(=O)CN(Cc2ccccc2)C(=O)[C@@H]2CCCN2C(=O)[C@H](CC(C)C)N(C)C1=O | 10
CC(C)C[C@H]1NC(=O)[C@H](C)N(C)C(=O)[C@H](Cc2ccccc2)NC(=O)CN(Cc2ccccc2)C(=O)[C@H]2CCCN2C(=O)C[C@H](Cc2ccccc2)NC1=O | 2.3
CC(C)C[C@@H]1C(=O)N[C@H](CC(C)C)C(=O)N2CCC[C@@H]2C(=O)N(Cc2ccccc2)CC(=O)N[C@@H](Cc2ccccc2)C(=O)N[C@H](C)C(=O)N1C | 2.2

Excerpt, the final 2 entries:

SMILES	PAMPA (10^-6 cm/s)
CC(C)C[C@H]1NC(=O)[C@H](C)N(C)C(=O)[C@H](Cc2ccccc2)NC(=O)CN(Cc2ccccc2)C(=O)[C@H]2CCCN2C(=O)C[C@H](Cc2ccccc2)NC1=O	2.3
CC(C)C[C@@H]1C(=O)N[C@H](CC(C)C)C(=O)N2CCC[C@@H]2C(=O)N(Cc2ccccc2)CC(=O)N[C@@H](Cc2ccccc2)C(=O)N[C@H](C)C(=O)N1C	2.2

Values of Townsend et al. 2020, doi:10.26434/chemrxiv.13335941.v1, as listed in CycPeptMPDB.